Reference: US8609680B2, “2,3-dihydro-1H-inden-1-yl-2,7-diazaspiro[3.5] nonane derivatives” (Pfizer Inc., priority 2010, dated 2013)

Protein sequences, listed by entry. Tags and fused reporters are not part of them.
UniProt Q92847, whole entry: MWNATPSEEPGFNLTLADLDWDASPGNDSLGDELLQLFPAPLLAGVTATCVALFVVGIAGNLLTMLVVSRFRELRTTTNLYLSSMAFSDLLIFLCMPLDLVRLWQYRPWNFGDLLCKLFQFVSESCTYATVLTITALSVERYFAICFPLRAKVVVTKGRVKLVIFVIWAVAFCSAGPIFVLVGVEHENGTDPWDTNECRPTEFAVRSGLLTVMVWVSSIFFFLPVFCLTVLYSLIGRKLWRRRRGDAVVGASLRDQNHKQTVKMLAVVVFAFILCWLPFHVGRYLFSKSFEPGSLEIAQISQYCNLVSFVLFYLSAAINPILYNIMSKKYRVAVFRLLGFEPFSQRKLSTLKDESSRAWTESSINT

Molecular target: human GHSR1a (Homo sapiens, UniProt Q92847)
Assay: Human Ghrelin SPA Binding Assay
Details: SPA format, [125I] ghrelin displacement

SMILES: CCc1ccc(CC(=O)N2CCC3(CC2)CN(C2CCc4cc(-n5nccn5)ccc42)C3)nc1 (racemic)
- IC50 (human GHSR1a membranes from HEK293 Tetracycline-Inducible cell line): 28.1 nM
- Ki (human GHSR1a membranes, Ki=IC50/(1+[ligand]/Kd)): 26.4 nM
